Measured values taken from patent publication US5830909A, “Angiotensin (AII) antagonists as inhibitors of the growth of adipose tissue” (American Cyanamid Company, priority 1996, dated 1998).

Chains of the proteins cited; added tags and fusions are not shown.
UniProt P25095, whole entry: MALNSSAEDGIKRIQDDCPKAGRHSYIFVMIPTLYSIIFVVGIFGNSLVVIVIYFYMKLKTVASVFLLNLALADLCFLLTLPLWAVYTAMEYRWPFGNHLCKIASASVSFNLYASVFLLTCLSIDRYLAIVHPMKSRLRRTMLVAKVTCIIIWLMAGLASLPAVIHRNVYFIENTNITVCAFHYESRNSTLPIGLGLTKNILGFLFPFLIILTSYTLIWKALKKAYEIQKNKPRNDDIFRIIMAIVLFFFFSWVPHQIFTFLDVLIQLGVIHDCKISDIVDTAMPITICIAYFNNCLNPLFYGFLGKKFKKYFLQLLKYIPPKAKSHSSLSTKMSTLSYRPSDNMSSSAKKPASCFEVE

Key:
AII receptor [1] = target: T1, AII receptor (Rattus norvegicus, UniProt P25095); assay: Displacement of 125I[Sar,Ile]AII binding in rat epididymal fat cell membranes; details: 1 nM radioligand, 1-4 assays, read-out: Inhibitory Constants (IC50) for displacement of 125I[Sar,Ile]AII binding, Epididymal
T1 construct: adipose tissue from the epididymal and retroperitoneal depots is quickly excised; from tissue; host or cells: membranes of collagenase-isolated adipocytes from epididymal and retroperitoneal fat of male Sprague-Dawley rats
Excerpt: (§1) The experimental design involves determining the binding characteristics of adipocyte membranes harvested from two different anatomic sites at three different ages. Male Sprague-Dawley rats (Charles River Laboratories, Wilmington, Mass.) are used at 40, 70 and 100 days of age. Rats are killed by carbon dioxide inhalation on the morning of the experiment, and adipose tissue from the epididymal and retroperitoneal depots is quickly excised and placed in cold saline. The spermatic artery and vein are removed from the epididymal fat, and brown fat deposits are dissected away from the retroperitoneal depot. […] Protein content of the high speed pellet is determined, the resuspended protein is either assayed immediately or stored at -75° before binding assays are performed. […] Separation of bound from free radioactivity is achieved using any appropriate filtration apparatus. […] The filters are placed in tubes, and radioactivity measured in a gamma scintillation counter programmed to correct for the half-life of the isotope. Using this experimental protocol, both the affinity (KD) and number of binding sites (Bmax) for angiotensin II on the adipocyte membrane can be calculated. The relative affinities of different anatomically distinct adipocyte membranes for a variety of peptide and nonpeptide antagonists can also be determined. […]

AII receptor [2] = target: T1, AII receptor; assay: Displacement of 125I[Sar,Ile]AII binding in rat retroperitoneal fat cell membranes; details: 1 nM radioligand, 1-4 assays, read-out: Inhibitory Constants (IC50) for displacement of 125I[Sar,Ile]AII binding, Retroperitoneal
Excerpt: as §1

## Sar^1-Ala^8 AII [reference compound]
AII receptor [1]
  pIC50: 8.37
AII receptor [2]
  pIC50: 8.58

pIC50: −log10 of the molar value.
